Data from PMC6203815 (2018).

Target: T1, Pfs48/45 6C domain (NF54) (Plasmodium falciparum)
T1 chain: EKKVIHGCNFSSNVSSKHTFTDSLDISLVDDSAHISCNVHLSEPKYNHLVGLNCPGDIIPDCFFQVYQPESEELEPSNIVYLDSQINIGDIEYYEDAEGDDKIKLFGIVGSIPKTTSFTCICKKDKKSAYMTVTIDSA
Assay: BLI

B1: 85RF45.1 Fab (Fab, V domains shown)
VH: EVQLVESGGGLLQPGRSLKLSCVASGFTFNNYWMSWIRQAPGKGLEWIASISNIGGTIYYPDSVKGRFTISRDSAQNTLYLQMNSLRSEDTATYYCTRDLRMSDYFDYWGQGVMVTVSS
VL: QFVLSQPNSVSTNLGSTVKLSCKRSTGNIGSNYVSWYQHHEGRSPTTMIYRDDQRPDGVPDRFSGSIDRSSNSALLTIDNVQTEDEAAYFCHSYSTGMYIFGGGTKLTVL
modifications: N-linked glycan at N303 (a NAG residue left after Endo H treatment in the crystals)
Binder B1 has a Kd of 3.2 nM.
